From ChEMBL document CHEMBL2401698 (J Med Chem, 2013)

How the values were obtained:
[1] = target: T1, Adenosine receptor A3 (Mus musculus) (UniProt Q61618); assay: Activity at mouse adenosine A3 receptor expressed in HEK293 cell membranes assessed as inhibition of forskolin-stimulated cAMP production preincubated for 30 mins prior to forskolin-treatment measured after 15 mins by ELISA relative to 2-chloro-N6-(3-iodobenzyl)adenosine-5'-N-methyluronamide; assay type: functional, cell-based
T1 sequence (whole entry): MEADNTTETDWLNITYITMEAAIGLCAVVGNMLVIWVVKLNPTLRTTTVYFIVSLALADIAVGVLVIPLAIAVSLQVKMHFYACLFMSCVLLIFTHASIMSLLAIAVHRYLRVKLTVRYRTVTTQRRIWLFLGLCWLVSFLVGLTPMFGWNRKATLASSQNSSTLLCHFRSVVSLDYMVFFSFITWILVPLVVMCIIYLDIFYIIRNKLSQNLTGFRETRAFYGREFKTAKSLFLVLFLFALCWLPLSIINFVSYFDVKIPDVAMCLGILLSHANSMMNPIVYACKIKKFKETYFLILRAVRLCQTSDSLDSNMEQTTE
Procedure, shortened: (§1)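 2 × 10^5 cells/tube coincubated with forskolin (10 μM) and ligand for 15 min at 37 °C. Stopped with 1 N HCl; cAMP by competitive binding assay.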

[2] = target: T1, Adenosine receptor A3 (Mus musculus); assay: Agonist activity at mouse adenosine A3 receptor expressed in HEK293 cell membranes assessed as inhibition of forskolin-stimulated cAMP production preincubated for 30 mins prior to forskolin-treatment measured after 15 mins by ELISA relative to control; assay type: functional, cell-based; procedure, shortened: as §1

## O[C@@H]1[C@H](O)[C@@H]2C[C@@H]2[C@H]1n1cnc2c(NCCc3ccccc3)nc(C#Cc3ccccc3)nc21
[1]
  Efficacy: 14.3%
[2]
  Emax: 7%
